The structures appear in SMILES notation.

What all share (details): in vivo
Series [1] concerns Mus musculus. Kind of series: AUC (0 to infinity) in Swiss Webster mouse at 70 mg/kg, po by HPLC-MS/MS analysis. Format: ADME, organism-based, Plasma. Further details: time infinity, dose 70 mg/kg, route oral.
A short description of series [2]: Half life in Swiss Webster mouse at 1 mg/kg, iv by HPLC-MS/MS analysis. Format: ADME, organism-based. Further details: dose 1 mg/kg, route intravenous. In short, it runs like this: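 Male Swiss Webster mice, n = 3 per time point. For i.v., the compound was dissolved in sterile water, diluted 1:1 with 2× saline, and given as a tail-vein bolus over ~10–20 s. For p.o., it was given by gavage in sterile water. Dose volume was 5 ml/kg. Terminal plasma was taken from 5 min to 72 h and measured by HPLC-MS/MS (calibration 2.5–10,000 nM). Parameters came from noncompartmental analysis.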

Series [3] in a line: Clearance in Swiss Webster mouse at 4.9 mg/kg, iv by HPLC-MS/MS analysis. Format: ADME, organism-based. Further details: dose 4.9 mg/kg, route intravenous.

Broadly, the AUC is the area under the concentration-time curve, a measure of exposure. Low values mean less exposure, high ones more exposure. The half-life is the time in which the quantity being followed falls by half. On to `CC(C)Oc1cc(NC(=N)c2ccccn2)ccc1-c1ccc(-c2ccc(NC(=N)c3ccccn3)cc2OC(C)C)o1`, for which, in series [1], the exposure (AUC) was 13.2 µM·h. The same molecule showed a half-life in series [2] of 22 h.

As usually defined, the clearance is a measure of how efficiently the substance is removed, as volume per time. Read a high clearance as a high capacity for elimination. In series [3], `CCOc1cc(NC(=N)c2ccccn2)ccc1-c1ccc(-c2ccc(NC(=N)c3ccccn3)cc2OCC)o1` displayed a clearance of 28 mL/min/kg.

The values above are taken from ChEMBL document CHEMBL1275590, “Novel arylimidamides for treatment of visceral leishmaniasis” (Antimicrob Agents Chemother, 2010).
